The source of these data is patent US9248145B2, “Two alkylresorcinol synthase genes from sorghum; cloning, expression, transformation and characterization” (The United States of America, as represented by The …, priority 2010, dated 2016).

Assay in all cases: Polyketide synthase enzyme assay, alkylresorcinol synthase activity
Holding throughout (type): biochemical, Oryza sativa

The subject of experiment [1] is recombinant Os05g12180. The following applies: preferred substrate. Here is the method:
(§1) Polyketide synthase enzyme assays, performed in triplicate, contained 100 mM potassium phosphate buffer (pH 7.0), 40 μM malonyl-CoA, 25 μM starter unit (e.g., palmitoyl-CoA), and 2 μg protein in a 200 μL volume at 30° C. for 15 min. […] Reactions were quenched by addition of 10 μL of 20% HCl, and products were extracted by phase partitioning with 1 ml of ethyl acetate. The organic phase (upper layer) obtained by centrifugation at ˜14,000×g for 1 min was transferred to a fresh tube, dried under vacuum, and subsequently analyzed by GC-EI-MS as a trimethysilyl (TMS) derivative. Product formation was quantified using selective ion monitoring at m/z 268, a fragment ion common to all alkylresorcinols, generated by benzylic cleavage of the alkyl side chain. The identification of the m/z 268 [(5-methyl-1,3 phenylene)bis(oxy)bis(TMS)]^+ base ion and the parent [M]^+ provide confirmation of the 5-alkylresorcinolic structure as well as the length and degree of saturation of the associated side chain (Occolowitz, 1964. Anal. Chem. 36:2177-2181; Suzuki et al. 1996, supra; Suzuki at al. 2003, supra).
(§2) Enzyme assays, performed in triplicate, for starter unit CoA kinetics contained 100 mM potassium phosphate buffer (pH 7.0), 40 μM [2-^14C]-malonyl-CoA (50-60 mCi/mmol, 1.85-2.22 GBq/mmol; American Radiolabeled Chemicals, Inc., St. Louis, Mo.), 1.43-10 μM starter unit (e.g., palmitoyl-CoA), and 0.75 μg protein in a 200 μL volume at 30° C. for 5 min. Enzyme assays for malonyl-CoA kinetics contained 100 mM potassium phosphate buffer (pH 7.0), 1.66-25 μM [2-^14C]-malonyl-CoA, 25 μM starter unit (palmitoleoyl-CoA), and 0.75 μg protein in a 200 μL volume at 30° C. for 5 min. Reactions were quenched by addition of 10 μL of 20% HCl. The products were extracted as described above, and were separated by thin layer chromatography (silica gel 60 F254; chloroform:ethyl acetate=70:30; 15 min). Product detection and formation was quantified through the use of the Cyclone storage phosphor system and OptiQuant 3.0 image analysis software (PerkinElmer, Wellesley, Mass.). […]

Experiment [2] concerns recombinant Os10g08620. The following applies: preferred substrate. Here is the method:
as §1, §2

Experiment [3] concerns recombinant Os10g07040. Here is the method: as §1, §2

Structures are written as SMILES.

As for `CCCCCCCCCCCCCC(=O)SCCNC(=O)CCNC(=O)[C@H](O)C(C)(C)COP(=O)(O)OP(=O)(O)OC[C@H]1O[C@@H](n2cnc3c(N)ncnc32)[C@H](O)[C@@H]1OP(=O)(O)O` [myristoyl-CoA], the “maximal 5-alkylresorcinol-forming activity” value in experiment [1] is recorded as 66.6 pkat mg^−1; in experiment [2], 48.6 pkat mg^−1; in experiment [3], 13.2 pkat mg^−1.
